Test results reported in ChEMBL document CHEMBL1154676, “Synthetic mRNA splicing modulator compounds with in vivo antitumor activity” (J Med Chem, 2009).
In brackets after ≈: the same amount, converted by molar mass.

Experiments:
[1] = Chemical stability in phosphate buffer assessed as half life at pH 7.4 at 22 degC; assay type: physicochemical
[2] = Solubility in PBS; assay type: physicochemical; conditions: buffer

Structure (SMILES): CC(=O)O[C@@H](C)/C=C\C(=O)N[C@H]1CC[C@@H](C/C=C(C)/C=C/[C@@H]2C[C@]3(CO3)CC(C)(C)O2)CC1
- t1/2 [1]: 50 days

Structure (SMILES): CC(/C=C/[C@@H]1C[C@]2(CO2)CC(C)(C)O1)=C\C[C@H]1OC[C@@H](NC(=O)/C=C\[C@H](C)OC(=O)C(C)C)CO1
- solubility [2]: 47 µM (≈ 23.1 µg/mL)

Structure (SMILES): CC(/C=C/[C@@H]1C[C@]2(CO2)CC(C)(C)O1)=C\C[C@H]1CC[C@@H](NC(=O)/C=C\[C@H](C)OC(=O)C(C)C)CC1
- solubility [2]: < 1 µM
- t1/2 [1]: 50 days
